Reference: article PMC12261321, “Inhibitors of the Bacterioferritin Ferredoxin Complex Dysregulate Iron Homeostasis and Kill and Biofilm-Embedded Cells” (ACS Infectious Diseases, 2025)

What was measured:
[1] = Determination of compound aqueous solubility in M63 media; conditions: in M63 media at 35 °C
[2] = Stability in aqueous solution; type: physicochemical

SMILES	Solubility [1]	stability in aqueous solution [2]
O=C1NC(=O)c2c(NCc3cc(F)cc(F)c3O)cccc21	100 µM (≈ 30.4 µg/mL)	
O=C1NC(=O)c2c(NCc3ccc(F)cc3O)cccc21	150 µM (≈ 42.9 µg/mL)	
O=C1NC(=O)c2c(NCc3c(O)ccc(Br)c3F)cccc21	30 µM (≈ 11 µg/mL)	
Cc1ccc(O)c(CNc2cccc3c2C(=O)NC3=O)c1	120 µM (≈ 33.9 µg/mL)	
O=C1NC(=O)c2c(NCc3cc(Cl)cc(Cl)c3O)cccc21	40 µM (≈ 13.5 µg/mL)	
O=C1NC(=O)c2c(NCc3ccc(Cl)cc3O)cccc21	60 µM (≈ 18.2 µg/mL)	
O=C1NC(=O)c2c(NCc3cccc(O)c3O)cccc21	200 µM (≈ 56.9 µg/mL)	stable in aqueous solution

Converted amounts (≈) assume the structure as drawn.
